Only a part is listed here, and it is no random draw. Calls of active or inactive are those of the source. The call rests on the fitted dose curve; in most records, active means well fitted activation curve with a large enough effect; inconclusive means small, poorly fitted or top-dose-only effect, or another doubt; inactive means no such curve, though single readings can be large or run the other way.
Assay: Activators of T cell receptors: qHTS campaign; further: % of control where 0% means no effect
Conditions: primary human leukocytes, anti-CD3, IL-2 HTRF, 48 h; at 9.22 µM (top of the series) unless noted
Source text: Normally activation of naive T cells requires two signals. 1. A signal through the T cell receptor (TCR) which provides antigen specificity to the response. 2. Signals through co-stimulatory molecules, which are necessary for proliferation, survival and cytokine production. In the absence of co-stimulatory signals T cells are not effectively activated, and may even be rendered anergic or unresponsive to subsequent signaling. This lack of costimulation has been shown in multiple model systems to be a major factor in the limited strength and effectiveness of anti-tumor T cell responses. The goal of this project is to identify small molecule compounds that will stimulate T cell activation in the presence of TCR signaling but in the absence of co-stimulatory signals, thereby allowing activation of naive T cells in the absence of co-stimulation. Identification of such compounds would have clear experimental and clinical applications in instances where desirable antigen-specific immune responses are not generated due to a lack of co-stimulation, for example in the generation of anti-tumor responses. In collaboration between the National Cancer Institute and NIH Chemical Genomics Center, a high-throughput amenable screen was developed to discover small molecules that co-stimulate and activate human T cell receptors. The screen will be carried out using a novel homogeneous time resolved fluorescence energy transfer (HTRF) assay to measure production of the cytokine IL-2 by activated T cells and will be tested against the NIH Molecular Libraries Small Molecule Repository (MLSMR). NIH Chemical Genomics Center [NCGC] NIH Molecular Libraries Probe Centers Network [MLPCN] MLPCN Grant: MH090820-01 Assay Submitter (PI): Richard Hodes, National Cancer Institute, NIH
Primary human leukocytes are incubated with a-CD3 beads and compounds for 48 hr. The amount of secreted IL-2 is then assayed with a HTRF IL-2 kit. The presence of IL-2 cytokine captures the detection reagents and brings the a-IL-2-K and a-IL-2-d2 into close proximity. Upon excitation with 320nm light, the europium cryptate is capable of transferring energy to acceptor molecules within close proximity, resulting in acceptor molecule emission at 665nm.

SMILES	activation of IL-2 secretion
CCc1cc(O)c([N+](=O)[O-])c(C)c1[N+](=O)[O-]	inactive: 2.91%
CC(C)(C)C(=O)NC(Sc1ccccc1)C(Cl)(Cl)Cl (stereo not drawn)	inactive: 2.14%
O=P1(Nc2nc3ccc(Cl)cc3s2)COc2ccccc2O1 (stereo not drawn)	inactive: 3.23%
CCOc1ccc(C2=NCC(CBr)S2)cc1 (stereo not drawn)	inactive: -3.48%
CC(=O)Nc1ccc([As](=O)(O)O)c(O)c1	inactive: 11.8%
CC(=O)Nc1ccc(Oc2c([N+](=O)[O-])cc([N+](=O)[O-])cc2[N+](=O)[O-])cc1	inactive: 4.99%
N#C/C(=C\c1ccc(N(CCBr)CCBr)cc1)C(N)=O	inactive: -7.33%
CC(=O)c1ccc(N2CC2c2ccncc2)cc1 (stereo not drawn)	inactive: -8.62%
COC(=O)C1(C)COP(=O)(NCc2ccccc2)OC1 (stereo not drawn)	inactive: -2.92%
Cc1ccccc1CN(C)C(=O)COC(=O)C(O)(c1ccccc1)c1ccccc1	inactive: -1.46%
C[C@@H]1C=CCP(=O)(Oc2ccccc2)O1 (stereo partly drawn)	inactive: 6.32%
C[C@H]1OP(=O)(Oc2ccccc2)C[C@@H]2O[C@@H]21 (stereo partly drawn)	inactive: -3.64%
O=P1(N(CCCl)CCCl)OCCC2CCCCN21 (stereo not drawn)	inactive: 3%
O=C(NC1CCS(=O)(=O)C1)NP(=S)(Oc1ccccc1)Oc1ccccc1 (stereo not drawn)	inactive: -5.76%
CCNC(=S)/N=C(\N)N[N+](=O)[O-]	inactive: -1.17%
c1ccc(-c2nn[nH]n2)c(-c2nn[nH]n2)c1	inactive: 6.15%
Cc1ccc(NP(=O)(Oc2cccc(C)c2)Oc2cccc(C)c2)nc1	inactive: -3.05%
Cc1ccccc1OP(=O)(Nc1ccccn1)Oc1ccccc1C	inactive: -2.89%
CC(NC(=O)COC(=O)C(O)(c1ccccc1)c1ccccc1)c1ccccc1 (stereo not drawn)	inactive: -3.43%
CN(C)C(=O)Oc1noc2ccccc12	inactive: 1.27%
O=c1c2cc([N+](=O)[O-])ccc2[nH]c2c([N+](=O)[O-])cc([N+](=O)[O-])cc12	inactive: 3.35%
COC(=O)c1cc2c(s1)N=C(c1ccccc1)N(C)P2(=O)N1CCOCC1 (stereo not drawn)	inactive: 2.34%
Cc1ccc(OP(=O)(Nc2ccccn2)Oc2ccc(C)cc2)cc1	inactive: 3.16%
CC(=O)NC(SC(=S)N(CC(C)C)CC(C)C)C(Cl)(Cl)Cl (stereo not drawn)	inactive: 0.779%
O=C(OC1CN2CCC1CC2)c1ccccc1 (stereo not drawn)	inactive: 2.79%

SMILES	activation of IL-2 secretion
CCC(=O)N1C2C3N(C(=O)CC)C1C1N(C(=O)CC)C(C(N1C(=O)CC)N3C(=O)CC)N2C(=O)CC	inactive: -9.08%
O=P(Nc1nc2ccccc2s1)(c1ccccc1)c1ccccc1	inactive: 5.45%
C[C@H]1OP(=O)(Oc2ccccc2)[C@H](O)[C@H](O)[C@H]1N=[N+]=[N-] (stereo partly drawn)	inactive: -3.13%
COc1ccc(N)c([N+](=O)[O-])c1[N+](=O)[O-]	inactive: -2.22%
CN(C)C1(CNC(=O)c2ccc(Cl)c(S(N)(=O)=O)c2)CCCCC1	inactive: -2.15%
O=P(Nc1ccccn1)(c1ccc(Br)cc1)c1ccc(Br)cc1	inactive: 1.82%
Nc1ccc([As](=O)(O)c2ccc([N+](=O)[O-])cc2)cc1	inactive: -7.06%
C(Cc1nn[nH]n1)Cc1nn[nH]n1	inactive: -0.811% [at 46.1 µM]
O=C(OC1CN2CCC1CC2)c1cccc(Cl)c1 (stereo not drawn)	inactive: -5.24%
O=[N+]([O-])c1ncn(CCn2cnc([N+](=O)[O-])n2)n1	inactive: -9.6%
CC(=O)NC(SC(=S)N(C)C)C(Cl)(Cl)Cl (stereo not drawn)	inactive: 2.38% [at 46.1 µM]
O=[N+]([O-])c1ccc(O)c(/C=N/Nc2ccc([N+](=O)[O-])cc2[N+](=O)[O-])c1	inactive: -1.84%
O=[As](O)(c1ccccc1)c1ccc(O)cc1	inactive: -3.82%
c1nnnn1CCn1cnnn1	inactive: -6.69%
O=P(Nc1nccs1)(c1ccccc1)c1ccccc1	inactive: 1.01%
CC(C)C(=O)NC(Sc1ccccc1)C(Cl)(Cl)Cl (stereo not drawn)	inactive: -5.35% [at 46.1 µM]
CC(=O)N1C2C3N(C(C)=O)C1C1N(C(C)=O)C(C(N1C(C)=O)N3C(C)=O)N2C(C)=O	inactive: 0.577%
O=[N+]([O-])c1cccc2n[nH]nc12	inactive: -0.743%
Cc1ccc(NP(=O)(Oc2ccccc2)Oc2ccccc2)nc1	inactive: 1.37%
O=[N+]([O-])c1cc([N+](=O)[O-])c(CCNc2ccccc2)c([N+](=O)[O-])c1	inactive: -4.87%
CCc1nc2c(n1)c1c(non1O)c1c2no[n+]1[O-]	inactive: 1.52%
COc1ccc(C2=NCC(CBr)S2)cc1 (stereo not drawn)	inactive: 1.09%
CC(C)=N/N=C(\N)N[N+](=O)[O-]	inactive: -2.15%
CN(C)C(=O)OCCc1n(C)cc[n+]1C	inactive: -4.94% [at 46.1 µM]
CC1CCN(C(=O)Oc2c(Cl)cc(Cl)c3cccnc23)CC1	inactive: -1.28%

SMILES	activation of IL-2 secretion
Nc1ccc([As](=O)(O)c2ccc(N)cc2)cc1	inactive: -2.66%
C[N+]1=C2C=CC=CC=C2SC12C([N+](=O)[O-])=CC([N+](=O)[O-])=C[C-]2[N+](=O)[O-] (stereo not drawn)	inactive: 4.74%
CCN(/C(=N/P(=O)(N1CCOCC1)N1CCOCC1)N1CCOCC1)c1ccc(OC)cc1	inactive: 3.3%
O=C(Nc1cc([As](=O)(O)O)ccc1O)c1ccccc1	inactive: -2.69%
O=P1(N(CCCl)CCCl)OCCCS1 (stereo not drawn)	inactive: -3.05%
O=[N+]([O-])c1cccc(NC2=NCC(CBr)S2)c1 (stereo not drawn)	inactive: -5.23%
COC(=O)C1(C)COP(=O)(Nc2ccccc2)OC1 (stereo not drawn)	inactive: 2.91%
O=C(O)CNc1ccc([As](=O)(O)O)cc1	inactive: 2.48%
CC(C)(C)C(=O)NC(Sc1ccncn1)C(Cl)(Cl)Cl (stereo not drawn)	inactive: -16.1%
O=[N+]([O-])c1ncn(CCn2ncnc2[N+](=O)[O-])n1	inactive: -2.1%
CCOP(=O)(Nc1ccccc1)OCC	inactive: -0.25%
Cc1cc(SC(NC(=O)c2ccc(F)cc2)C(Cl)(Cl)Cl)ncn1 (stereo not drawn)	inactive: -2.56% [at 46.1 µM]
CN(C(=O)Cc1ccc(Cl)c(Cl)c1)[C@H]1CCCC[C@@H]1N1CCCC1	inactive: 4.32%
Cc1ccc(NP(=O)(Oc2ccccc2F)Oc2ccccc2F)nc1	inactive: -4.23%
O=C(O)c1ccccc1[As](=O)(O)O	inactive: 2.19%
CC(=O)Nc1ccc([As](=O)(O)O)cc1	inactive: 2.07%
CCCC1OP(N)(=O)OCC1CC (stereo not drawn)	inactive: 0.182%
O=P(Nc1nc2ccc(Cl)cc2s1)(c1ccccc1)c1ccccc1	inactive: 4.57%
CCN(N=Nc1nonc1N)c1nonc1N	inactive: 1.34% [at 46.1 µM]
Nc1cccc2ccc([As](=O)(O)O)cc12	inactive: 4.57%
COc1ccccc1OP(=O)(Nc1ccc(C)cn1)Oc1ccccc1OC	inactive: -0.609%
Cc1ccc(OP(=O)(Nc2nccs2)Oc2ccc(C)cc2)cc1	inactive: -1.1%
Clc1ccc(Cl)c(NC2=NCC(CBr)S2)c1 (stereo not drawn)	inactive: -5.27%
CN1CCCC(OC(=O)C(c2ccccc2)c2ccccc2)C1 (stereo not drawn)	inactive: 0.724% [at 46.1 µM]
NC(=O)c1cc([N+](=O)[O-])cc([N+](=O)[O-])c1N	inactive: -2.86%

SMILES	activation of IL-2 secretion
CN(C(=O)Cc1ccc(Cl)c(Cl)c1)[C@H]1CCCC[C@H]1N1CCCC1	inactive: 6.07%
Cc1ccc(N/C(=N/P(=O)(N2CCOCC2)N2CCOCC2)N2CCOCC2)cc1	inactive: -6.3%
CC(C)CC(=O)NC(Sc1ccc(Cl)cc1)C(Cl)(Cl)Cl (stereo not drawn)	inactive: -0.0818%
Nc1cc(N)c2nonc2c1[N+](=O)[O-]	inactive: 4.54%
Oc1ccccc1CNc1ccccn1	inactive: 6.17%
O=C(NC(Sc1ccncn1)C(Cl)(Cl)Cl)c1ccccc1 (stereo not drawn)	inactive: 14.9% [at 46.1 µM]
COc1ccc2nc(NP(=O)(c3ccccc3)c3ccccc3)sc2c1	inactive: -0.963%
COc1cc(I)ccc1[As](=O)(O)O	inactive: 0.522%
O=P1(N(CCCl)CCCl)OCCCN1CCCl (stereo not drawn)	inactive: -2.5%
O=P1(N(CCCl)CCCl)Nc2ccccc2N1	inactive: 2%
O=C(OC1CN2CCC1CC2)C12CC3CC(CC(C3)C1)C2 (stereo not drawn)	inactive: -3.31%
Cc1cc(=O)[nH]c(N[N+](=O)[O-])n1	inactive: -1.34%
Cc1c2c(nc3ccccc13)SC(C(Cl)Cl)C2 (stereo not drawn)	inactive: -2.46% [at 46.1 µM]
O=[N+]([O-])c1cc(Oc2ccc([N+](=O)[O-])cc2C(F)(F)F)cc([N+](=O)[O-])c1	inactive: 1.47%
Cc1ccc2nc3c(c(C)c2c1)CC(C(Cl)Cl)S3 (stereo not drawn)	inactive: -12.7% [at 46.1 µM]
Cc1ccc(OP(=O)(Nc2ccc([N+](=O)[O-])cn2)Oc2ccc(C)cc2)cc1	inactive: 1.05%
C[As](=O)(O)c1cccc(C(=O)O)c1	inactive: -34.9%
O=[As](O)(c1ccc(O)cc1)c1ccccc1O	inactive: -6.12%
COc1cc(C(=O)NCC2(N3CCOCC3)CCCCC2)ccc1OCC(C)C	inactive: -0.502%
O=[N+]([O-])c1ccc(-c2cc([N+](=O)[O-])c(O)c([N+](=O)[O-])c2)cc1	inactive: -3.3%
CCN(CC)C(=S)SC(NC=O)C(Cl)(Cl)Cl (stereo not drawn)	inactive: -7%
CC(C)NC(=O)NP(=O)(Oc1ccccc1)Oc1ccccc1	inactive: -0.609%
O=[N+]([O-])c1cc([N+](=O)[O-])c(-c2ccn[nH]2)s1	inactive: 0.246% [at 46.1 µM]

Reference: PubChem BioAssay AID504894 (National Center for Advancing Translational Sciences (NCATS), 2011)
